The values below come from ChEMBL document CHEMBL1145995, “Tricyclic benzimidazoles as potent poly(ADP-ribose) polymerase-1 inhibitors” (J Med Chem, 2003).

Assay [1] concerns A549. Put plainly: Percent ADP-ribose polymer formation at 25 uM compound concentration in A549 cells. Conditions: Homo sapiens.
The test system of assay [2] is A549. The assay is described as follows: Effect on NAD+ depletion (% remaining versus vehicle control) 25 uM compound concentration in A549 cells. Conditions: Homo sapiens.

Consider `CN(N=O)C(=N)N[N+](=O)[O-]`, for which, in the assay on A549 [1], the Formation worked out at 100%. The compound further returned a Remaining in the assay on A549 [2] of 30%.
